Consider 34 compounds from patent US10499641B2 (priority 2010, dated 2019).

The conditions of one data set: LC-MS, acidic range, pH 2.7, 0.1% aqueous formic acid and acetonitrile.
With `O=C(Cn1nc(C(F)F)cc1C(F)F)N1CCC(c2nc(C3=NOC(c4ccccc4C=NO)C3)cs2)CC1` (mixture of isomers) [Example I-4], the “logp [a]” value was 2.77[a].

Turning to `CCON=C(C)c1cccc(C2CC(c3csc(C4CCN(C(=O)Cn5nc(C(F)F)cc5C(F)F)CC4)n3)=NO2)c1` (mixture of isomers) [Example I-5], the “logp [a]” value was 3.92[a]. For the compound `CC(C)ON=Cc1cccc(C2CC(c3csc(C4CCN(C(=O)Cn5nc(C(F)F)cc5C(F)F)CC4)n3)=NO2)c1` (mixture of isomers) [Example I-6], the “logp [a]” value was 4.06[a]. On the same count and under the same terms, the result for `Cc1cc(C(F)(F)F)nn1CC(=O)N1CCC(c2nc(C3=NOC(c4cccc(C=NOC(C)C)c4)C3)cs2)CC1` (mixture of isomers) [Example I-8] reads 4.15[a].

Turning to `CC(=NOC(C)C)c1cccc(C2CC(c3csc(C4CCN(C(=O)Cn5nc(C(F)(F)F)cc5C)CC4)n3)=NO2)c1` (mixture of isomers) [Example I-9], the “logp [a]” value was 4.46[a]. On the same count and under the same terms, the result for `Cc1cc(C(F)(F)F)nn1CC(=O)N1CCC(c2nc(C3=NOC(c4cccc(C=NO)c4)C3)cs2)CC1` (mixture of isomers) [Example I-10] reads 2.63[a].

For `CCON=Cc1cccc(C2CC(c3csc(C4CCN(C(=O)Nc5cc(Cl)ccc5C)CC4)n3)=NO2)c1` (mixture of isomers) [Example I-12], the “logp [a]” value was 4.06[a]. On the same count and under the same terms, the result for `Cc1ccc(Cl)cc1NC(=O)N1CCC(c2nc(C3=NOC(c4cccc(C=NO)c4)C3)cs2)CC1` (mixture of isomers) [Example I-14] reads 2.79[a]. On to `CON=Cc1cccc(C2CC(c3csc(C4CCN(C(=O)Cn5nc(C(F)(F)F)cc5C)CC4)n3)=NO2)c1` (mixture of isomers) [Example I-15], for which the “logp [a]” value is 3.45[a]. With `CON=Cc1cccc(C2CC(c3csc(C4CCN(C(=O)Cn5nc(C(F)F)cc5C(F)F)CC4)n3)=NO2)c1` (mixture of isomers) [Example I-16], the “logp [a]” value was 3.38[a]. The same measure, in the same setting: the result for `CC(=NO)c1cccc(C2CC(c3csc(C4CCN(C(=O)Cn5nc(C(F)F)cc5C(F)F)CC4)n3)=NO2)c1` (mixture of isomers) [Example I-18] reads 2.71[a]; that for `CON=Cc1cccc(C2CC(c3csc(C4CCN(C(=O)Nc5cc(Cl)ccc5C)CC4)n3)=NO2)c1` (mixture of isomers) [Example I-19], 3.76[a]. `CC(=NOC(C)C)c1cccc(C2CC(c3csc(C4CCN(C(=O)Cn5nc(C(F)F)cc5C(F)F)CC4)n3)=NO2)c1` (mixture of isomers) [Example I-20]: the “logp [a]” value is 4.32[a]. With `CON=C(C)c1cccc(C2CC(c3csc(C4CCN(C(=O)Cn5nc(C(F)F)cc5C(F)F)CC4)n3)=NO2)c1` (mixture of isomers) [Example I-21], the “logp [a]” value was 3.55[a]. Take `O=C(Cn1nc(C(F)F)cc1C(F)F)N1CCC(c2nc(C3=NOC(c4cccc(C=NO)c4)C3)cs2)CC1` (mixture of isomers) [Example I-22]: the “logp [a]” value is 2.57[a]. On to `CON=C(C)c1cccc(C2CC(c3csc(C4CCN(C(=O)Nc5cc(Cl)ccc5C)CC4)n3)=NO2)c1` (mixture of isomers) [Example I-23], for which the “logp [a]” value is 3.99[a]. On to `CCON=Cc1cccc(C2CC(c3csc(C4CCN(C(=O)Cn5nc(C(F)F)cc5C(F)F)CC4)n3)=NO2)c1` (mixture of isomers) [Example I-24], for which the “logp [a]” value is 3.71[a].

Turning to `CCON=Cc1ccccc1C1CC(c2csc(C3CCN(C(=O)Cn4nc(C(F)F)cc4C(F)F)CC3)n2)=NO1` (mixture of isomers) [Example I-27], the “logp [a]” value is 3.91[a]. `CC(=NOC(C)C)c1ccccc1C1CC(c2csc(C3CCN(C(=O)Cn4nc(C(F)F)cc4C(F)F)CC3)n2)=NO1` (mixture of isomers) [Example I-28]: the “logp [a]” value is 4.33[a]. Regarding `CC(=NOC(C)C)c1ccccc1C1CC(c2csc(C3CCN(C(=O)Cn4nc(C(F)(F)F)cc4C)CC3)n2)=NO1` (mixture of isomers) [Example I-30], the “logp [a]” value was 4.44[a].

Turning to `CON=C(C)c1ccccc1C1CC(c2csc(C3CCN(C(=O)Cn4nc(C(F)(F)F)cc4C)CC3)n2)=NO1` (mixture of isomers) [Example I-31], the “logp [a]” value is 3.73[a]. For `CON=C(C)c1ccccc1C1CC(c2csc(C3CCN(C(=O)Cn4nc(C(F)F)cc4C(F)F)CC3)n2)=NO1` (mixture of isomers) [Example I-32], the “logp [a]” value was 3.64[a]. On to `CCON=Cc1ccccc1C1CC(c2csc(C3CCN(C(=O)Nc4cc(Cl)ccc4C)CC3)n2)=NO1` (mixture of isomers) [Example I-33], for which the “logp [a]” value was 4.25[a]. Consider `O=C(Cn1nc(C(F)F)cc1C(F)F)N1CCC(c2nc(C3=NOC(c4ccccc4C=NO)C3)cs2)CC1` (mixture of isomers) [Example I-35], for which the “logp [a]” value is 3.01[a]. Same read-out and setting: the result for `Cc1ccc(Cl)cc1NC(=O)N1CCC(c2nc(C3=NOC(c4ccccc4C=NO)C3)cs2)CC1` (mixture of isomers) [Example I-36] reads 3.05[a]; that for `Cc1ccc(Cl)cc1NC(=O)N1CCC(c2nc(C3=NOC(c4ccccc4C=NOC(C)C)C3)cs2)CC1` (mixture of isomers) [Example I-37], 4.67[a]; that for `Cc1cc(C(F)(F)F)nn1CC(=O)N1CCC(c2nc(C3=NOC(c4ccccc4C=NO)C3)cs2)CC1` (mixture of isomers) [Example I-38], 2.85[a].

With `Cc1cc(C(F)(F)F)nn1CC(=O)N1CCC(c2nc(C3=NOC(c4ccccc4C=NOC(C)C)C3)cs2)CC1` (mixture of isomers) [Example I-39], the “logp [a]” value is 4.37[a]. On the same count and under the same terms, the result for `CC(C)ON=Cc1ccccc1C1CC(c2csc(C3CCN(C(=O)Cn4nc(C(F)F)cc4C(F)F)CC3)n2)=NO1` (mixture of isomers) [Example I-42] reads 4.25[a]; that for `C[Si](C)(C)C#CCOc1ccccc1C1CC(c2csc(C3CCN(C(=O)Cn4nc(C(F)F)cc4C(F)F)CC3)n2)=NO1` (stereo not shown) [Example I-1, 2-[3,5-Bis(difluoromethyl)-1H-pyrazol-1-yl]-1-(4-{4-[5-(2-{[3-(trimethylsilyl)prop-2-yn-1-yl]oxy}phenyl)-4,5-dihydro-1,2-oxazol-3-yl]-1,3-thiazol-2-yl]piperidin-1-yl}ethanone], 4.71[a],; that for `CC(C)(C)OC(=O)Nc1ccc(C2CC(c3csc(C4CCN(C(=O)Cn5nc(C(F)F)cc5C(F)F)CC4)n3)=NO2)cc1` (stereo not shown) [Example I-17, tert-Butyl (4-{3-[2-(1-{[3,5-bis(difluoromethyl)-1H-pyrazol-1-yl]acetyl}piperidin-4-yl)-1,3-thiazol-4-yl]-4,5-dihydro-1,2-oxazol-5-yl}phenyl)carbamate], 3.45[a],. For `CON=Cc1ccccc1C1CC(c2csc(C3CCN(C(=O)Cn4nc(C(F)F)cc4C(F)F)CC3)n2)=NO1` (stereo not shown) [Example I-26, 2-{3-[2-(1-{[3,5-Bis(difluoromethyl)-1H-pyrazol-1-yl]acetyl}piperidin-4-yl)-1,3-thiazol-4-yl]-4,5-dihydro-1,2-oxazol-5-yl}benzaldehyde O-methyloxime], the “logp [a]” value was 3.59[a]. Consider `CON=Cc1ccccc1C1CC(c2csc(C3CCN(C(=O)Nc4cc(Cl)ccc4C)CC3)n2)=NO1` (stereo not shown) [Example I-41, N-(5-Chloro-2-methylphenyl)-4-[4-(5-{2-[(methoxyimino)methyl]phenyl}-4,5-dihydro-1,2-oxazol-3-yl)-1,3-thiazol-2-yl]piperidine-1-carboxamide], for which the “logp [a]” value was 3.95[a].

Staying with this data set, now noted: LC-MS, neutral range, pH 7.8, 0.001 molar aqueous ammonium hydrogencarbonate and acetonitrile.
As to `CC(=O)Nc1ccc(C2CC(c3csc(C4CCN(C(=O)Cn5nc(C(F)F)cc5C(F)F)CC4)n3)=NO2)cc1` (stereo not shown) [Example I-25], the “logp [b]” value was 2.24[b].
